The structures appear in SMILES notation. The list shows a part of the results, in another mix than the full data. Some structures show a salt or complex split into parts, the way the source records it. Activity calls are given as the source filed them. No stated cut-off is given here; in the data, active means inhibition above about 85%; inconclusive means no clear call, values can overlap the other calls; inactive means below about 68%.

In general, inhibition refers to the change of the read-out against control, counted positive when it falls.

This assay can be described thus: blocks MITF activity, primary screen, MITF inhibitor project, cell-based, luminescence (AID 2240).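 Further: human melanocyte line stably carrying TRPM1 promoter luciferase reporter.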 As to conditions: TRPM1 promoter luciferase, 24 h, active compounds read high, concentration not given here.
Turning to `COc1cc2c(cc1NP(C)(=O)Oc1ccccc1)oc1ccccc12` (stereo unspecified), the inhibition is inactive: 15.5%. Then `CN(C(=O)Cc1ccc(Cl)c(Cl)c1)[C@H]1CCCC[C@@H]1N1CCCC1`, with inactive: -6.36%; and `C/C1=C2N=C(/C=C3N=C(/C(C)=C4\[N-][C@@](C)([C@@H]5N=C1[C@](C)(CCC(=O)NCC(C)OP(=O)(O)O[C@@H]1[C@H](O)[C@H](n6cnc7cc(C)c(C)cc76)O[C@H]1CO)[C@H]5CC(N)=O)[C@@](C)(CC(N)=O)[C@@H]4CCC(N)=O)[C@@](C)(CC(N)=O)[C@@H]\3CCC(N)=O)C(C)(C)[C@@H]/2CCC(N)=O.[C-]#N.[Co+3]` (stereo partly specified), with inactive: -3.47%.

For the compound `O=P1(Nc2ccccn2)COc2ccccc2OC1`, the inhibition was inactive: 10.5%. The result for `Cc1ccc(C(=O)OC2CN3CCC2CC3)cc1` (stereo unspecified) reads inactive: -6.43%; that for `O=C(OC1CN2CCC1CC2)c1ccc(Cl)cc1` (stereo unspecified), inactive: -1.57%.
